Assay results as given in article PMC11440776.

Target: tKeima (Montipora sp.) (UniProt Q1JV72)
Assay: crystal structure

- stoichiometry N: 4
Substance: tKeima (from UniProt Q1JV72 1-222) (natural protein)
